Measured values as given in patent US20250197476A1.

Target: Fc gamma receptors of NK cells
Experiment: cytofluorometry, NK cells, 10 µg/ml, 30 min at 37 °C

MFI: 1110
Substance: FcWT-N3-DBCO-A647 (from UniProt P01857 104-330)
